Reference: paper PMC4042408 (ACS chemical biology, 2013)

Chains of the proteins cited; added tags and fusions are not shown. Residues count along the entry.
UniProt P21836, 32-614: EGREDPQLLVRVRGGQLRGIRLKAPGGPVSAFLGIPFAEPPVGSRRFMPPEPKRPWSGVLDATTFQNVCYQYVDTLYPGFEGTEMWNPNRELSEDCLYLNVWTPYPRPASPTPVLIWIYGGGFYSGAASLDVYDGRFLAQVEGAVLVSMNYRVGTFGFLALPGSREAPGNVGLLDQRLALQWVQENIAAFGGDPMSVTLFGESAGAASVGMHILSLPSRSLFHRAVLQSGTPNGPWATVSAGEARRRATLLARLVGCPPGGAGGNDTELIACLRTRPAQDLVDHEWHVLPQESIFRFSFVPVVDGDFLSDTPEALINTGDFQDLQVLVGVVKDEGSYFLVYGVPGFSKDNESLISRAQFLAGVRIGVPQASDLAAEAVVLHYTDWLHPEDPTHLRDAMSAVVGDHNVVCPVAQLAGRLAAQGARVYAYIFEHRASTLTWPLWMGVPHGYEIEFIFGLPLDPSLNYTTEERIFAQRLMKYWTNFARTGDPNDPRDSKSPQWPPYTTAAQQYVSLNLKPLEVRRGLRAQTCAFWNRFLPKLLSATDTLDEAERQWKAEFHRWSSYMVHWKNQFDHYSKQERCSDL

Legend:
ACHE = ACHE (Mus musculus, UniProt P21836); assay: biochemical
AADAC = biological target: T1, AADAC (Mus musculus, UniProt Q99PG0); assay: Gel-based competitive ABPP; type: biochemical
T1 sequence (Q99PG0 1-398): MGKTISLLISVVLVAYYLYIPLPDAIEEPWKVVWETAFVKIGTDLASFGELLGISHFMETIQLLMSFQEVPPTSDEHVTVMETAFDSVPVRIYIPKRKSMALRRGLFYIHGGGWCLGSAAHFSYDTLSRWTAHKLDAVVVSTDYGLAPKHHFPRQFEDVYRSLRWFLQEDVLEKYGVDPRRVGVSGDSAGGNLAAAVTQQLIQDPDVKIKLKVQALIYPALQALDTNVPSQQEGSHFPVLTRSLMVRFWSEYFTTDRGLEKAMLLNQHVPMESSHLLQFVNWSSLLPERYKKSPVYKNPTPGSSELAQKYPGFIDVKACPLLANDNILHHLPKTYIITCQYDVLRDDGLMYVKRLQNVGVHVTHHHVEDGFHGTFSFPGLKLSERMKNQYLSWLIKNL

CCOP(=O)(OCC)Oc1nc(Cl)c(Cl)cc1Cl [CPO, chlorpyrifos-oxon]
IC50 (ACHE): 17 nM | IC50 (AADAC): 0.6 nM
